Data taken from patent publication US20240166669A1, “QUINAZOLINE AMINE DERIVATIVES AS KRAS INHIBITORS” (Nikang Therapeutics, Inc., priority 2021, published 2024).
pEC50: −log10 of the molar value.

Amino acid sequences for entries named in this document (tags omitted). Residues count along the entry.
UniProt P01116, 1-188 isoform 2 G12D: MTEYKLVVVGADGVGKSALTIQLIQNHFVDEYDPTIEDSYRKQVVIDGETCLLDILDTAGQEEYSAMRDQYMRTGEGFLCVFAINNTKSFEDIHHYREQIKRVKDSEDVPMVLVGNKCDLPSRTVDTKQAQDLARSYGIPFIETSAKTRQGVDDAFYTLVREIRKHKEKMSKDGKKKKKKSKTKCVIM

Biological target: K-Ras G12D (Homo sapiens, UniProt P01116, G12D)
Experiment: p-ERK Cellular 2-Plate Assay (Biological Example 2)
Settings: read-out: AGS PERK EC50; AGS cells (KRAS G12D), 3 h treatment, AlphaLISA p-ERK1/2, 2-plate; Biological Example 2 (unmarked values); tested form: mixture of the two enantiomers (6aS,7aR)
Description: The ability of the compound of Formula (IIA′), (II′), or (II) or a pharmaceutically acceptable salt thereof (test compound) to inhibit K-Ras G12D activity was tested using AGS (Cobioer, CBP60476) cell lines which harbor KRAS G12D mutation as described below.
AGS (Cobioer, CBP60476) were seeded in 384-well plates and cultured overnight (10.000 cells per well 40 μl total volume). The following morning, cells were treated with test compound, with staring concentration at 10 μM and 3-fold dilution down to 0.5 nM for 3 h at 37° C., DMSO treatment served as control. p-ERK was then measured using AlphaLISA SureFire Ultra p-ERK1/2 (Thr202/Tyr204) Assay Kit (Perkin Elmer, cat #ALSU-PERK) following the manufacturer's instruction as follows.
Briefly, the culture medium was removed and 20 μl 1× lysis buffer was added to each well, followed by 30 minutes incubation on a plate shaker at room temperature. Then 10 μl of lysate was transferred to a white 384-well plate. Acceptor mixture was prepared according to manufacturer's instruction. 5 μl acceptor mixture was added to the cell lysate and the plate was wrapped with foil, spun at 500 rpm for 10 s, and incubated at RT for 60 min. Donor mixture was prepared under subdued light. […] Signal was then measured on a EnVision 2105 multimode plate reader. […]

In the case of `C#Cc1c(F)ccc2cccc(-c3ncc4c(N5C[C@H]6CC[C@@H](C5)N6)nc(OC[C@]56CCCN5[C@H]5c7ccccc7OC[C@H]5C6)nc4c3F)c12`, the pEC50 was 7.72.
